The values below come from patent publication US9890166B2, “Imidazopyrrolidine derivatives and their use in the treatment of disease” (NOVARTIS AG, priority 2013, dated 2018).

By UniProt entry, the sequences of proteins in these tests, tags left out. Residues count along the entry.
UniProt Q15059, 20-477: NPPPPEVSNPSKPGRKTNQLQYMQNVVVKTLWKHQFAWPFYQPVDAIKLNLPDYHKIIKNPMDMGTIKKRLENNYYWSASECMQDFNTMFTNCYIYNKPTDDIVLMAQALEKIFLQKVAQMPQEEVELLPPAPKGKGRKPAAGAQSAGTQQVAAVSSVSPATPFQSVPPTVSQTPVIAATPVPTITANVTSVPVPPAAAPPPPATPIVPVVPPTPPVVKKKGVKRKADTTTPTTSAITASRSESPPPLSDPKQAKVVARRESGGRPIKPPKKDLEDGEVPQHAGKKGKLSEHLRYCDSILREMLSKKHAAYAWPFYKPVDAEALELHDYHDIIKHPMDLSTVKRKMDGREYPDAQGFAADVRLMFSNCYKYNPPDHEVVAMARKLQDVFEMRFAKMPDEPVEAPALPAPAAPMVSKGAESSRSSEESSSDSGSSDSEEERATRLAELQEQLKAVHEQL
UniProt P25440, 60-472: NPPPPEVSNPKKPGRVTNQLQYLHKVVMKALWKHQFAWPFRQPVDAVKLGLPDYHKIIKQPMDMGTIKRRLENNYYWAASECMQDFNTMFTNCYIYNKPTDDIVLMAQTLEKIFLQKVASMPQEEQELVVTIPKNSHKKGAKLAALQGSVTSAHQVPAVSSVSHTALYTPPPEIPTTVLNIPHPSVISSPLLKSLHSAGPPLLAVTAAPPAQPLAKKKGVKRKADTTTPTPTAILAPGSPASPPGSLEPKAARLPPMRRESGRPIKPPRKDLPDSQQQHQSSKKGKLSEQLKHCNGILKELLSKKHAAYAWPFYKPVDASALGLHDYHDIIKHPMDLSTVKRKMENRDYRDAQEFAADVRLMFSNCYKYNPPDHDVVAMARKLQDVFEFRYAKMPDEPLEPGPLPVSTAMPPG
UniProt Q92793, 1081-1197: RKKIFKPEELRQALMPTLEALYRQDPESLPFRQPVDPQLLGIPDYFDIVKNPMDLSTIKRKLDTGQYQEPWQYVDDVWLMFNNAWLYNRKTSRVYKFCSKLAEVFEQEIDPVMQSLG

By IC50 is commonly meant the midpoint of a concentration-inhibition curve.

In one assay the target is BRD3 (His-Brd3(20-477)) (Homo sapiens (Human), UniProt Q15059). Description: TR-FRET in-vitro binding assay for BRD3. The note with it: read-out: Biochemical IC50 BRD3. The protocol: (§1) TR-FRET In-Vitro Binding Assays for BRD2, BRD3, and BRD4:
(§2) All assays were performed in 384 well microtiter plates. Each assay plate contained 8-point serial dilutions for 40 test compounds, plus 16 high- and 16 low controls. Liquid handling and incubation steps were done on an Innovadyne Nanodrop Express equipped with a robotic arm (Thermo CatX, Perkin Elmer/Caliper Twister II) and an incubator (Liconic STX40, Thermo Cytomat 2C450). The assay plates were prepared by addition of 50 nl per well of compound solution in 90% DMSO HummingBird nanodispenser (Zinsser Analytic). […] Reactions were incubated at 30° C. for 35 minutes. […] After 35 minutes incubation at 30° C., plates were measured in a Perkin Elmer EnVision multilabel reader.
(§3) Preparation of Compound Dilutions
(§4) Test compounds were dissolved in DMSO (10 mM) and transferred into 1.4 mL flat bottom or V-shaped Matrix tubes carrying a unique 2D matrix. The stock solutions were stored at […] if not used immediately. For the test procedure the vials were defrosted and identified by a scanner whereby a working sheet was generated that guided the subsequent working steps.
(§5) Compound dilutions were made in 96 well plates. […]
On the technique in general: TR-FRET usually uses a lanthanide donor and a delayed reading to cut background.

For a further assay, the target named is BRD2 (His-Brd2(60-472)) (Homo sapiens (Human), UniProt P25440). Description: TR-FRET in-vitro binding assay for BRD2. The note with it: read-out: Biochemical IC50 BRD2. As to the method: as §1, §2, §3, §4, §5
The target of assay [1] is CREBBP bromodomain (His-CREBBP(1081-1197)) (Homo sapiens (Human), UniProt Q92793). Description: AlphaScreen in-vitro binding assay for CREBBP. Particulars: read-out: Biochemical IC50 CREBBP. As to the method:
AlphaScreen In-Vitro Binding Assay for CREBBP
In order to assess bromodomain selectivity, we set up a binding assay using the bromodomain encoded by the CREBBP gene. […] Reactions were incubated at 30° C. for 35 minutes. Subsequently 4.5 μl per well detection mix (50 mM HEPES, pH 7.5, 0.005% Tween20, 0.02% BSA, 150 mM NaCl, 45 μg/ml Ni-chelate acceptor beads, 45 μg/mIstreptavidin-donor beads) (Perkin Elmer)) were added. After 60 minutes incubation at room temperature, plates were measured in a Perkin Elmer EnVision multilabel reader. IC50 values were determined from percent inhibition values at different compound concentrations by non-linear regression analysis.
as §3, §4
Compound dilutions were made in 96 well plates. This format enabled the assay of maximally 40 individual test compounds at 8 concentrations (single points) including 4 reference compounds, if desired (known BET inhibitors from the prior art, for this and other assays of the type disclosed herein). […]
(In general: Alpha assays give light when donor and acceptor beads are brought close together.)

For `Cc1nc2c([nH]1)C(c1ccc(Cl)cc1)N(c1cc(C)c3nnn(C)c3c1)C2=O` (stereo not drawn) [Example 1, 6-(4-chlorophenyl)-5-(3,7-dimethyl-3H-benzo[d][1,2,3]triazol-5-yl)-2-methyl-5,6-dihydropyrrolo[3,4-d]imidazol-4(1H)-one], the IC50 was determined as 53 nM at BRD3 (His-Brd3(20-477)), 67 nM on BRD2 (His-Brd2(60-472)) and 7000 nM in assay [1].
